Reference: ChEMBL document CHEMBL2057130, “Bruton's tyrosine kinase inhibitors: approaches to potent and selective inhibition, preclinical and clinical evaluation for inflammatory diseases and B cell malignancies” (J Med Chem, 2012)

Tested on: Macrophage
Experiment: Inhibition of immobilized immune complex-stimulated TNFalpha production in macrophages
Format: functional, cell-based

For `Cc1c(NC(=O)c2ccc(C(C)(C)C)cc2)cccc1-c1cn(C)c(=O)c(Nc2ccc(C(=O)N3CCOCC3)cc2)n1`, the inhibition was “Dose-dependent effect”.
